Test results from US5609897A, “Powdered beverage concentrate or additive fortified with calcium and vitamin D” (priority 1995, dated 1997).

What was measured:
[1] = rat, in vivo, 30240 min; cited from earlier work
[2] = pH 3.5

- Solubility [2]: soluble
Substance: Calcium Glycerophosphate [CaGP]
- Relative calcium bioavailability [1]: 106%
- Solubility over one month [2]: remained soluble at pH 3.5 for at least one month
